Reference: patent US20100184648A1, “Therapeutic agent for non-alcoholic fatty liver disease, and screening method for drug candidate compound for treatment or prevention of non-alcoholic fatty liver disease” (priority 2006, published 2010)

What was measured:
[1] = tested on: 173 kinds of physiologically functional proteins; test: Specificity panel of 173 physiologically functional proteins; format: binding; settings: final concentration of 10 μM; other than the MCH receptors
Protocol: (§1) The inhibitory action of Compound A against various receptors listed in Table 2 was examined to evaluate the specificity of Compound A. The activities of the receptors were measured by using an appropriate assay system according to the property of the respective receptors. Further, the evaluation results of Compound A were calculated as an inhibition ratio at a final concentration of 10 μM. Here, the inhibition ratio was calculated based on a value of a control compound in each assay. As is apparent from the results shown in Table 2, it was confirmed that Compound A is specific to an MCH receptor.

DIO mice = test: Effect on DIO mice (MHF diet), intraventricular administration; format: in vivo, mice (C57BL/6J); settings: 7.5 μg/day intraventricular
[2] = tested on: NASH mice induced by MCD diet; test: Effect on NASH mice induced by MCD diet, intraventricular administration; format: in vivo, mice (C57BL/6J)
From the text: Male mice (C57BL/6J, Nippon CLEA) were fed with MCD diet (a methionine choline deficient diet) to produce mice in which NASH was induced, and an effect of Compound A on the NASH mice was examined.
In order to intraventricularly administer an agent, a cannula was inserted into mice at 16 to 17 weeks of age in the same manner as in Example 1. Incidentally, mice which were continued to be raised with a normal diet (CE-2) were subjected to sham surgery (only incision and suture of the dorsal skin).
After a sufficient period of time for recovery (1 to 2 weeks) from the insertion of cannula had passed, the mice were divided such that the body weights became equal between groups. The numbers of mice allocated to the respective groups are as follows. Incidentally, the mice were raised with the normal diet (CE-2) and at 4 days after initiation of administration of an agent, the diet was changed to a predetermined diet.
The intraventricular administration of Compound A was carried out in the same manner as in Example 1. Also, the vehicle was administered in the same manner as in Example 1. As the pellet-type MCD diet and control diet, ICN 960439 and ICN 960441 available from ICN Biomedicals were used, respectively.
On day 11 after initiation of loading of the MCD diet, the blood and organs of the mice were collected in the same manner as in Example 1. The biochemical parameters measured for the plasma sample from the heart were AST and ALT, which were measured with HITACHI Clinical analyzer 7070 (Hitachi Co., Ltd.).
Further, a portion of the liver was excised during dissection, and measurement of hepatic biochemical parameters, measurement of hepatic mRNA, and histopathological observation were carried out. The measurement of hepatic biochemical parameters and measurement of mRNA were carried out according to the following procedure. One lobe of the liver was excised and after the weight thereof was measured, it was cryopreserved. The cryopreserved one lobe of the liver was homogenized, and a lipid fraction was extracted from a portion of the resulting homogenate with Folch reagent. Then, the extracted lipid fraction was dried and hardened with nitrogen gas, and the triglyceride was measured using Determiner L TG II (Kyowa Medex). Further, by using a portion of the homogenate, TBARS (thiobarbituric acid reactive substance, one of the markers for oxidative stress), which is a parameter of lipid peroxide, was measured with reference to the method described in Method in Enzymology, vol. 186, p. 407 (1990). From the portion of the liver (50 mg) collected for measurement of mRNA, RNA was extracted using ISOGEN (NIPPON GENE), and cDNA was synthesized using Taqman RT reagents (Applied Biosystems). By using Taqman real time PCR (HT7900, Applied Biosystems), TNFα and IL-113, which are inflammatory cytokines, and the expression level of Cyp4A14, which is involved in the formation of lipid peroxide, were measured (the expression level was represented by a ratio to 18s rRNA). The histopathological observation was carried out according to the following procedure. The middle lobe of the liver was excised and fixed in a 10% neutral buffered formalin solution. A paraffin section was prepared according to a standard method, and HE staining and fat staining were carried out. Histopathological evaluation of tissue lesions including inflammatory cell infiltration and hepatocellular vacuolation (fatty change) was carried out by using the degree of the change and range of the distribution as indices.

Glutamate AMPA = test: Receptor specificity: inhibition ratio, Glutamate AMPA; format: binding; settings: final concentration of 10 μM
Protocol: as §1

NASH mice induced by HFD = test: Effect on NASH mice induced by HFD, intraventricular administration; format: in vivo, mice (C57BL/6J)
From the text: Male mice (C57BL/6J, Nippon CLEA) were fed with HFD (a high fat diet, D12492, Research Diets Inc.) for about 1 year. The obtained mice were used as an NASH pathological model, and an effect of Compound A on the NASH mice was examined.
The mice were fed with HFD or a normal diet (CE-2). During the test period, the feed and water were given ad libitum, and the mice were not subjected to fasting.
In order to intraventricularly administer an agent, a cannula was inserted into mice at 62 weeks of age in the same manner as in Example 1. Incidentally, an antibiotic used was 100 mg/kg of Cefamezin α.
The numbers of mice allocated to the respective groups are as follows.
The intraventricular administration of Compound A was carried out in the same manner as in Example 1. Also, the vehicle was administered in the same manner as in Example 1.
At 4 weeks after the initiation of administration of an agent, the blood and organs of the mice were collected in the same manner as in Example 1. Incidentally, before the dissection of mice, the body fat percentage was measured using NMR (Minispec mq 7.5, Bruker Optics). The hepatic triglyceride, ALT and AST were measured in the same manner as in Example 2. Further, histopathological observation of the liver was carried out in the same manner as in Example 2.

[3] = HF diet, n = 6, grade Very slight

CSCC[C@@H]1NC(=O)[C@@H](NC(=O)[C@H](CCCNC(=N)N)NC(C)=O)CSSC[C@@H](C(N)=O)NC(=O)CCCCNC(=O)[C@H](Cc2ccc(O)cc2)NC(=O)[C@H](C(C)C)NC(=O)[C@H](CCCNC(=N)N)NC(=O)CCCCNC1=O [Compound A, H2N-Cys-Ava-Tyr-Val-Arg-Ava-Met-Cys-Arg-C(═O)CH3]
affinity for 173 kinds of physiologically functional proteins [1]: the affinity thereof could not be found other than the MCH receptors | liver weight (DIO mice; FIG. 1(a)): decrease to a normal level | plasma ALT (DIO mice; FIG. 1(b)): decrease to a normal level | TBARS level in the liver ([2]; FIG. 6(a)): suppressed | plasma AST level ([2]; day 11, 7.5 μg/day intraventricular, FIG. 2): the increase thereof was suppressed | hepatic triglyceride level ([2]; day 11, FIG. 3): suppressed | expression level of Cyp4A14 in the liver ([2]; mRNA, ratio to 18s rRNA, FIG. 6(b)): decreased | expression level of TNFα in the liver ([2]; mRNA, ratio to 18s rRNA, FIG. 7(a)): decreased | expression level of IL-1β in the liver ([2]; mRNA, ratio to 18s rRNA, FIG. 7(b)): decreased | Multifocal cell infiltration, Moderate (number of mice) ([2]; n = 10, grade Moderate): 0 | Multifocal cell infiltration, Slight (number of mice) ([2]; n = 10, grade Slight): 4 | Single cell necrosis, Slight (number of mice) ([2]; n = 10, grade Slight): 0 | Multifocal cell infiltration, Very slight (number of mice) ([2]; n = 10, grade Very slight): 6 | Single cell necrosis, Very slight (number of mice) ([2]; n = 10, grade Very slight): 10 | liver pathology: lipid droplets and inflammatory cell infiltration ([2]; vs vehicle group, FIG. 4): both were reduced | Inhibition ratio (Glutamate AMPA): 8 | Hepatocellular vacuolation, Moderate (number of mice) (NASH mice induced by HFD; HF diet, n = 6, grade Moderate): 3 | Hepatocellular vacuolation, Significant (number of mice) (NASH mice induced by HFD; HF diet, n = 6, grade Significant): 0 | Hepatocellular vacuolation, Slight (number of mice) (NASH mice induced by HFD; HF diet, n = 6, grade Slight): 2 | Multifocal cell infiltration, Slight (number of mice) (NASH mice induced by HFD; HF diet, n = 6, grade Slight): 0 | Hepatocellular vacuolation, Very slight (number of mice) (NASH mice induced by HFD; [3]): 1 | Multifocal cell infiltration, Very slight (number of mice) (NASH mice induced by HFD; [3]): 3 | Single cell necrosis, Very slight (number of mice) (NASH mice induced by HFD; [3]): 0 | hepatic triglyceride level (NASH mice induced by HFD; HFD, 4 weeks of administration, FIG. 8(a)): the increase thereof was suppressed | plasma ALT level (NASH mice induced by HFD; HFD, 4 weeks of administration, FIG. 8(b)): the increase thereof was suppressed | plasma AST level (NASH mice induced by HFD; HFD, 4 weeks of administration, FIG. 8(c)): the increase thereof was suppressed | liver pathology: lipid droplets and inflammatory cell infiltration (NASH mice induced by HFD; HFD, vs vehicle group, FIG. 9): both were reduced
